Paper PMC3866116 (PLoS ONE, 2013)

Legend:
[1] = system: HCV subgenomic replicon RNA of genotype 1b strain Con1; assay: Drug combination analysis (CalcuSyn) in Con1 LUN Sb #26 replicon cells; format: cell-based, hepatitis C virus; settings: 72 h
Description: The replicon cells were seeded at 2×10^4 cells per well in a 48-well plate 24 h before treatment. […] The resulting cells were harvested 72 h post-treatment and lysed with cell culture lysis reagent (Promega, Madison, WI). The luciferase activity of each cell lysate was estimated using a luciferase assay system (Promega). The resulting luminescence was detected by a Luminescencer-JNR AB-2100 (ATTO, Tokyo, Japan).
The effects of drug-drug combinations were evaluated by using the Con1 LUN Sb #26 replicon cells, and were analyzed by using the computer software CalcuSyn (Biosoft, Cambridge, United Kingdom). Dose inhibition curves of two different drugs were plotted with each other. In each drug combination, EC90 values of several combinations of two different drugs were plotted as the fractional concentration (FC) of both drugs on the x and y-axes. Additivity indicates the line linked between 1.0 FC value points of both drugs in the absence of each other. Synergy and antagonism are indicated by values plotted under and above, respectively, an additivity line. The explanatory diagram of isobologram is shown in a right end of lower panels of Figure 5A. Combination indexes (CIs) were calculated at the EC50, EC75, and EC90 by using CalcuSyn. A CI value of less than 0.9 indicates synergy. A CI value ranging from 0.9 to 1.1 indicates additivity. A CI value of more than 1.1 indicates antagonism. […]

[2] = system: ISRE-promoter activity; assay: ISRE reporter assay in Huh7 OK1 cells; format: cell-based; settings: 48 h of treatment, interferon alpha 2b as positive control
Description: Huh7 OK1 cells were transfected with pEF.Rluc.HCV.IRES.Feo or pEF.Rluc.EMCV.IRES.Feo [39]. These transfected cells were seeded at 2×10^4 cells per well in a 48-well plate 24 h before treatment, treated with DMSO or compound 10, and then harvested at 72 h post-treatment. The firefly luciferase activities were measured with a luciferase assay system (Promega). The total protein concentration was measured using the BCA Protein Assay Reagent Kit (Thermo Scientific, Rockford, IL, USA) to normalize luciferase activity. To evaluate the interferon response, Huh7OK1 cells were seeded on a 48 well plate at a density of 2×10^4 cells per well, and transfected with pISRE-TA-Luc (Takara bio, Shiga, Japan) and phRG-TK (Promega). These transfected cells were incubated in the presence of compounds, IFN-α 2b, or DMSO, and then harvested at 48 h post-treatment. The firefly luciferase and Renilla luciferase activities were quantified by using Dual luciferase reporter assay system (Promega).

Substance: interferon alpha 2b: Interferon alfa-2b (IFN-α 2b) obtained from MSD; positive control and combination partner
- effect of combination with compound 10 on inhibition of HCV replication (combination index at EC50, EC75, EC90) ([1]; CI <0.9 synergy, 0.9 to 1.1 additivity, >1.1 antagonism): antagonistic to synergistic effect
- isobologram: location of calculated EC90 plots for combination with compound 10 ([1]; under additive line = synergy, above = antagonism): under the additive line
- effect on ISRE-promoter activities [2]: significantly enhanced
